Values quoted from earlier work, collected in US8183280B2, “FAP inhibitors” (Vantia Limited, priority 2005, dated 2012).

The chains behind the UniProt entries cited, without tags or fusion partners.
UniProt P27487, whole entry: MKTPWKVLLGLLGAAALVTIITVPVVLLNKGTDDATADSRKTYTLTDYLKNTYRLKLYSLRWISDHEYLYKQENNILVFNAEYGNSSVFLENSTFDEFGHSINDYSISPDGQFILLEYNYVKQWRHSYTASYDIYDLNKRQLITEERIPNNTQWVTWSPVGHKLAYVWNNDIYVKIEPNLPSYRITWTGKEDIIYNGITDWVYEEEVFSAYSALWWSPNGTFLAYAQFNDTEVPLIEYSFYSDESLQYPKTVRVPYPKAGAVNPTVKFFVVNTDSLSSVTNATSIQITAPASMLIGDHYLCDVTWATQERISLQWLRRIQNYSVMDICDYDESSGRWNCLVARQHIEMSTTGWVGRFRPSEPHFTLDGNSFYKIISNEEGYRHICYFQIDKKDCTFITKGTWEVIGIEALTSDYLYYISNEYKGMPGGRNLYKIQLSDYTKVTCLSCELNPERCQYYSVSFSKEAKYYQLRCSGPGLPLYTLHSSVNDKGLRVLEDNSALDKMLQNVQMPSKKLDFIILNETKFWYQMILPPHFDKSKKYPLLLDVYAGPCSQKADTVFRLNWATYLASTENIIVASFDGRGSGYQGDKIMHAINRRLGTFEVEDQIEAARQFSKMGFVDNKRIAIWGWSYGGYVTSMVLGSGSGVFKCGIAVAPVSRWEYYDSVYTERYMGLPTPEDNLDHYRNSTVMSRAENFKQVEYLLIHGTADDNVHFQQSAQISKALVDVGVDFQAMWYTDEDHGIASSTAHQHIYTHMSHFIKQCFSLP

Target: DPIV (Homo sapiens, UniProt P27487)
Conditions: literature report, J. Med. Chem., 1996, 39, 2087

CC(C)[C@H](N)C(=O)N1CCC[C@H]1B(O)O [ValboroPro]
DPIV inhibition: potent inhibitor of DPIV
